Measured affinities in a library of Ab-95 light chain variants

Values reported by Engelhart et al. 2022, doi:10.1038/s41597-022-01779-4 (FLAb copy).

Target peptide (SARS-CoV-2 spike, HR2 region): PDVDLGDISGINAS

Parent scFv Ab-95: VH joined to VL by the linker GGGGSGGGGSGGGGS. Changes lie in the light chain CDRs alone.
VH: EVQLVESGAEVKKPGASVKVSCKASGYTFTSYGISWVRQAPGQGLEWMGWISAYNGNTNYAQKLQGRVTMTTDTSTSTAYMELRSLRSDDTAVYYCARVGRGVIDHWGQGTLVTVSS
VL: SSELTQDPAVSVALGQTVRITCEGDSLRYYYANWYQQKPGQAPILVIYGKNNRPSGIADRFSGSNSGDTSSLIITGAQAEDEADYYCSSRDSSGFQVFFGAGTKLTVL

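The starting antibody came from a phage panning campaign against this peptide. Library AAYL52 holds single substitutions and randomly drawn double and triple substitutions in the CDRs. The assay is AlphaSeq: two haploid yeast populations carry antibody and antigen on their surface. After mating in shaken culture at 30 °C for 16 h, diploids were selected and their barcode pairs sequenced. Scores were corrected for input abundance and mapped to Kd with protein pairs of known affinity run in the same pool. Mating was done three times.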

The parent's light chain CDRs are EGDSLRYYYAN, GKNNRPS, SSRDSSGFQVF; each variant's own CDRs replace them letter for letter. All variants listed here change V97 of the VL, counted from its first residue. Values are apparent Kd, the geometric mean of the replicates that gave a signal; lower means stronger binding. A pair that was not seen in any replicate is written "nd"; this usually means weak binding, but a binder can also be missed. In this assay the parent's reference entry averaged 200 nM; its copy inside this library read 180 nM.

The variant EQDSLRYYYAN, GKNNRYS, SSRDSSGFQQF gave 17 µM (2 of 3 replicates; controls 4 of 9).
The variant EGDSLDYYMAN, GKNNRPS, SSRDSSGFQAF gave 82 nM (3 of 3 replicates; controls 4 of 9).
The variant EGDSLRSYYAN, GWNNRPS, SSRDSSGFQEF gave 600 nM (3 of 3 replicates; controls 2 of 9).
The variant EGISLRYYYAN, GKNNRPS, VSRDSSGFQAF gave 47 µM (1 of 3 replicates; controls 1 of 9).
The variant EGRSLRYYYAN, GKNNRPS, SSRDSSEFQSF gave 5.1 µM (1 of 3 replicates; controls 1 of 9).
The variant EGDSLRYYYAN, GKNNRVS, SSRDSFGFQDF gave 2.2 µM (2 of 3 replicates; controls 3 of 9).
The variant EGASLRYYYAN, GKNNRPS, SSRDWSGFQDF gave 9.4 µM (2 of 3 replicates; controls 5 of 9).
The variant EGDSLRYYYSN, CKNNRPS, SSRDSSGFQSF gave nd (0 of 3 replicates; controls 2 of 9).
The variant EGDSLRYYYAN, GKNNRPY, SSRDDSGFQGF gave 970 nM (3 of 3 replicates; controls 4 of 9).
The variant EGDSLRYYYAN, GKNNRPS, STRDGSGFQSF gave 150 nM (3 of 3 replicates; controls 0 of 9).
The variant EGDSLRYYYAN, GKNNRPS, SSRDSAGTQTF gave 410 nM (3 of 3 replicates; controls 0 of 9).
The variant EGDSLRYYYAN, GKNNRRS, SSRDSSGEQSF gave 780 nM (3 of 3 replicates; controls 1 of 9).
The variant EGDSLRYYYAN, PKNNRPS, SSRLSSGFQTF gave nd (0 of 3 replicates; controls 4 of 9).
The variant EGDSLRYYYCN, GKNNRPS, SSRDSSYFQKF gave nd (0 of 3 replicates; controls 1 of 9).
The variant EGDSLRYYYAN, GKNNRPC, SSRDSSGFQDH gave 5.3 µM (3 of 3 replicates; controls 2 of 9).
The variant EGDSLHYYYAN, GKNNRPS, SSRDSSGFQIF gave 880 nM (2 of 3 replicates; controls 4 of 9).
The variant EGDSLRYYYAN, SKNNRPS, SSRDSSGYQFF gave 24 µM (2 of 3 replicates; controls 2 of 9).
The variant EGDSLRYYYAN, GKNNRPS, SSRDSSGCQWA gave 130 nM (3 of 3 replicates; controls 2 of 9).
The variant EGDGLEYYYAN, GKNNRPS, SSRDSSGFQMF gave 6.5 µM (1 of 3 replicates; controls 0 of 9).
The variant EQDTLRYYYAN, GKNNRPS, SSRDSSGFQDF gave 5.5 µM (1 of 3 replicates; controls 1 of 9).
The variant EGDSLTYYYAN, GKNNRPS, FSRDSSGFQDF gave nd (0 of 3 replicates; controls 2 of 9).
The variant EGDSLRYYYAN, GKNNRPK, SSRDSSGFQSF gave 920 nM (3 of 3 replicates; controls 0 of 9).
The variant EGDSLRYYYAN, GKNNRPS, SSRDSSGFWHN gave 56 µM (1 of 3 replicates; controls 2 of 9).
The variant MGDSLRYYYAN, GKNNRPS, SSHDSSGFQDF gave 17 µM (1 of 3 replicates; controls 0 of 9).
The variant EGDSLRYYYAK, GKNNRPL, SSRDSSGFQTF gave nd (0 of 3 replicates; controls 0 of 9).
The variant KGDQLRYYYAN, GKNNRPS, SSRDSSGFQIF gave 4.6 µM (2 of 3 replicates; controls 0 of 9).
The variant EGCSLRYYNAN, GKNNRPS, SSRDSSGFQYF gave 770 nM (3 of 3 replicates; controls 2 of 9).
The variant EGDSLRYDYAN, GKNNRPS, SSRDSSGYQDF gave nd (0 of 3 replicates; controls 1 of 9).
The variant EGDSLRYYYVN, GKNNRPS, SSRDSSGFQHF gave 130 µM (3 of 3 replicates; controls 4 of 9).
The variant EGDVLRYYYAN, GKNNRPS, SSLDSSGFQLF gave 34 µM (1 of 3 replicates; controls 3 of 9).
The variant EGDSLRYYYAN, CKNNRPS, SSRDSSGFQYF gave 680 nM (1 of 3 replicates; controls 1 of 9).
The variant EGDSLRYYYAN, GKNNRPS, SSKDSSGFQIF gave nd (0 of 3 replicates; controls 0 of 9).
The variant EGDALRYYYAN, GKNNQPS, SSRDSSGFQRF gave 2.6 µM (1 of 3 replicates; controls 3 of 9).

As a blank, each scFv also met three strains without target: over library AAYL52, 28% of these pairings were detected, typically at 8.2 µM and seldom below 800 nM. For each scFv, signals with the empty controls are counted beside the result.